## Antibody variant affinities, Ab-14 light chain, assay B

Antigen: PDVDLGDISGINAS, a 14-residue peptide of the SARS-CoV-2 spike HR2 region.

Ab-14 is the parent antibody, in scFv form: VH, then three GGGGS repeats, then VL. The heavy chain is unchanged in all variants.
VH: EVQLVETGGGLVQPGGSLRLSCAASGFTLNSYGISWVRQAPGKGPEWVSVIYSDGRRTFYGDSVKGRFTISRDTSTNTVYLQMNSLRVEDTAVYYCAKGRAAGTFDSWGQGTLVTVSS
VL: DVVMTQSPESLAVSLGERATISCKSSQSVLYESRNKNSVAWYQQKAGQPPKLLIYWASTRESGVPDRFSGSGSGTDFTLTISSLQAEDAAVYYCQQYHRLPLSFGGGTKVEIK

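The parent was found by panning a naive human phage display library on the peptide. The variants were designed computationally from a first round of random CDR variants and then made and measured. Group labels follow the data file (En: ensemble of fine-tuned language models; GP: Gaussian process model; HC: hill climbing; Gen: genetic algorithm; Gibbs: Gibbs sampling; a sequence that several methods proposed may carry one label only). In AlphaSeq, yeast of one mating type display the scFv and yeast of the other type display the target. Pairs that bind mate more often; barcode pairs of the diploids are counted by sequencing. Read counts were normalised to the haploid input and turned into Kd by a linear fit to BCL2-family pairs of known affinity, for each replicate. Each pool was mated in six replicate cultures.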

Each variant is given by its three light chain CDRs, as the data file delimits them; those of the parent are KSSQSVLYESRNKNSVA, WASTRES, QQYHRLPLS. This list holds designs with more than six substitutions. Values are apparent Kd, the geometric mean of the replicates that gave a signal; lower means stronger binding. "nd" marks a missing value. The strain was present, yet no cells mated with the target were sequenced in any replicate, which points to weak or no binding. Background: pairings of all light chain designs with three empty control strains gave a value in 4% of cases (median 430 nM, 5th percentile 38 nM). Values in that range, when seen in few replicates, are hard to tell from nonspecific mating. In the paper, a design with two or fewer of six values counts as a poor binder. The parent sequence was in this pool as ten entries: three were never detected, three once, and four in most replicates, with averages from 2.2 nM to 240 nM. A sequence measured in both rounds can read differently, since the two assays cover different ranges.

For MVSQLMQWGLHRKNSIA | EAVTRFN | QQYDRLPLF [En_Gen], the assay gave 63 nM (5 of 6 replicates).
For KLSQSVNMTGKNKNSVA | ELSFRES | QQYERLPLS [En_HC], the assay gave 450 nM (1 of 6 replicates).
For MISQIMNMGQFAINSVA | QASLRCN | QQYDRLPLE [En_Gen], the assay gave 17 nM (6 of 6 replicates).
For TIGQSVHETSRIKNSVA | HASTRED | QQYDRLPLS [En_HC], the assay gave 2.2 nM (6 of 6 replicates).
For QITNQTAGISNGIDSIA | EETNLTD | QQYGHLPLS [En_Gibbs], the assay gave 1.8 µM (1 of 6 replicates).
For KIAATVLYESGNANSVA | QNSTRES | QQYHRLPLS [En_HC], the assay gave nd (0 of 6 replicates).
For KLSTSQLYWSRNFNSVA | QASTRET | QQYHRLPLS [GP_Gibbs], the assay gave 11 nM (6 of 6 replicates).
For HLSINLPGNWYMGDSVA | HSERRAE | QQYARLPLG [En_Gibbs], the assay gave 1.8 nM (6 of 6 replicates).
For KLSQMYEYESRWPNSVA | HASTREL | QQYHRLPLS [GP_Gibbs], the assay gave 1.1 nM (2 of 6 replicates).
For KLSMMVDYGDRNKNSVA | HASTRES | QQYHRLPLS [GP_Gibbs], the assay gave 840 pM (6 of 6 replicates).
For KLTHVTFVLDRQKYSIA | DSERKAE | QQYNRLPLT [En_Gibbs], the assay gave nd (0 of 6 replicates).
For TISMLMNHMTRNTNNVA | NMDMRED | QQYDRLPLS [En_Gen], the assay gave 1.3 nM (6 of 6 replicates).
For KVSEFMRGLMKIKNSIA | DNVTRSN | QQYDRLPLS [En_Gen], the assay gave 19 nM (6 of 6 replicates).
For HMSMLTLMGSRERNSVA | QMTTREN | QQYDRLPLA [En_Gen], the assay gave 10 nM (6 of 6 replicates).
For KEQNYSLYMGGYDQNIA | NVSLRCE | QQYFMLPLT [En_Gibbs], the assay gave 94 nM (6 of 6 replicates).
For KITSTMRFEQKNSNNIA | EVTTRSK | QQYVRLPLA [En_Gen], the assay gave 420 pM (6 of 6 replicates).
For MISQLMNLGQFAINSVA | QATIRNS | QQYDRLPLT [En_Gen], the assay gave nd (0 of 6 replicates).
For KIGATLNFLEHKQNNVA | DLVTREN | QQYHRLPLS [En_Gen], the assay gave 1.3 nM (6 of 6 replicates).
For AIDSHGLGTQEYYDSIA | EEHVKVR | QQYDRLPLS [En_Gibbs], the assay gave 240 nM (1 of 6 replicates).
For SISGFMKSLSAHANSVA | DMTNREN | QQYDRLPLS [En_Gen], the assay gave 3.7 nM (6 of 6 replicates).
For KSSCSVDYEDRNSNSVA | NASTRLW | QQYHRLPLS [GP_Gibbs], the assay gave 2.0 nM (6 of 6 replicates).
For KLDLLNGEMDKGGDNIA | EVSTAGM | QHYWRLPLS [En_Gibbs], the assay gave 70 nM (3 of 6 replicates).
For KITGMWTFESHNRNNIA | EESTRED | QSYHRLPLS [En_HC], the assay gave 4.0 nM (6 of 6 replicates).
For KISQMYRYEQQNSSSIA | EANTRED | QSYHRLPLS [En_HC], the assay gave 120 nM (6 of 6 replicates).
For TISQSAHMESHNKDNVA | DLNLRGS | QQYDRLPLS [En_HC], the assay gave 32 nM (6 of 6 replicates).
For IIDQIMYWGISLKNSIA | QASERLN | QQYHHLPLF [En_Gen], the assay gave 62 nM (4 of 6 replicates).
For TLSQSMDMTSRNVNSVA | DLETRGN | QQYHRLPLS [En_HC], the assay gave 1.4 nM (6 of 6 replicates).
For QLDTQLQYMDANKNSVA | EMTEETT | QQYHRLPLE [En_Gibbs], the assay gave nd (0 of 6 replicates).
For TLSQMSGLEAVKHNNVA | ENSTREK | QQYDRLPLA [En_Gen], the assay gave 6.5 µM (3 of 6 replicates).
For TIGGTLMYGMRNRSNVA | EVSERLN | QQYDRLPLH [En_Gen], the assay gave 1.1 µM (4 of 6 replicates).
For MVYSAVMAGGSTRNSIA | NAQMRPD | QQYHRLPLS [En_Gen], the assay gave 34 nM (6 of 6 replicates).
For MIHEMMGLVSHKNSSIA | DNSTREE | QQYDRLPLS [En_Gen], the assay gave 470 nM (5 of 6 replicates).
For SVHFYGTTGEQNWESIA | ENSIRVE | QQYSHLPLL [En_Gibbs], the assay gave 43 nM (6 of 6 replicates).
For MLSEVLHMLGVMKNSIA | DLVIRAN | QQYHRLPLM [En_Gen], the assay gave nd (0 of 6 replicates).

3 of these entries, quoted again:

With KIGATLNFLEHKQNNVA | DLVTREN | QQYHRLPLS [En_Gen] the result was 1.3 nM (6 of 6 replicates).
With HLSINLPGNWYMGDSVA | HSERRAE | QQYARLPLG [En_Gibbs] the result was 1.8 nM (6 of 6 replicates).
With KLSMMVDYGDRNKNSVA | HASTRES | QQYHRLPLS [GP_Gibbs] the result was 840 pM (6 of 6 replicates).

Data: MIT Lincoln Laboratory AlphaSeq set, Li et al. 2023, doi:10.1038/s41467-023-39022-2, as distributed in FLAb.